Assay results reported in patent publication US20230365554A1, “SUBSTITUTED PYRROLO-PYRIDINONE DERIVATIVES AND THERAPEUTIC USES THEREOF” (The Broad Institute, Inc., priority 2020, published 2023).
Values joined by “and” are separate entries in the source; they are usually repeats but may differ in a detail not shown here. Identical values can stand only once.

Chains of the proteins cited; added tags and fusions are not shown.
UniProt P48729, whole entry: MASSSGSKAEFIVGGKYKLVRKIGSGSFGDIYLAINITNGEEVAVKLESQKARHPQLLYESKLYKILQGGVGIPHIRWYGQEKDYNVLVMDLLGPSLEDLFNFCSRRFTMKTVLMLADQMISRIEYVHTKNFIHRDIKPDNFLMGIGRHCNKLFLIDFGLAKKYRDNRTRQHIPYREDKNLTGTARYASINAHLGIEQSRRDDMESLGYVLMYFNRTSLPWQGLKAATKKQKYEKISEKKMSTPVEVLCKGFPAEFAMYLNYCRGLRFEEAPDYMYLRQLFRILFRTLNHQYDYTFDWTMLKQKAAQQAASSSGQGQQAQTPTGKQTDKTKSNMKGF

Target: human CSNK1A1 (Homo sapiens (Human), UniProt P48729)
Experiment: CSNK1A1 Assay 1 (ADP-Glo, 1 μM ATP)
Conditions: read-out: CSNK1A1 Assay 1 IC50 [mol/l] (median), median or individual measurements, Table 4, WO 2016/120196 comparison compounds
Procedure: CSNK1A1-inhibitory activity of compounds of the present invention in presence of 1 μM adenosine-tri-phosphate (ATP) was quantified employing the CSNK1A1 assay as described in the following paragraphs. In essence, the enzyme activity is measured by quantification of the adenosine-di-phosphate (ADP), which is generated as a co-product of the enzyme reaction, via the “ADP-Glo™ Kinase Assay” kit from the company Promega. This detection system works as follows: In a first step the ATP not consumed in the kinase reaction is quantitatively converted to cAMP employing an adenylate cyclase (“ADP-Glo-reagent”), then the adenylate cyclase is stopped and the ADP generated in the kinase reaction converted to ATP which generates in a luciferase-based reaction a glow-luminescence signal (“Kinase Detection Reagent”).
Recombinant fusion protein of N-terminal Glutathion-S-Transferase (GST) and full-length human CSNK1A1, expressed by baculovirus infected insect cells and purified via Glutathion affinity chromatography, was purchased from Life Technologies (product no. PV4174) and used as enzyme. As substrate for the kinase reaction the biotinylated peptide Btn-Ahx-SGSEGDSESGEEEG (C-terminus in amide form) was used which can be purchased e.g. from the company Biosyntan (Berlin-Buch, Germany). […]

For CN1CCc2[nH]c(-c3ccnc(NC(=O)C4CC4)c3)c(Nc3ccccc3)c2C1=O, the IC50 was < 3.4 nM and 10 nM and 5.6 nM.
